Assay results reported in patent US7504432B2 (priority 2000, dated 2009).

Protein sequences, listed by entry. Tags and fused reporters are not part of them. Residues count along the entry.
UniProt A0A8I3N190, 1-590: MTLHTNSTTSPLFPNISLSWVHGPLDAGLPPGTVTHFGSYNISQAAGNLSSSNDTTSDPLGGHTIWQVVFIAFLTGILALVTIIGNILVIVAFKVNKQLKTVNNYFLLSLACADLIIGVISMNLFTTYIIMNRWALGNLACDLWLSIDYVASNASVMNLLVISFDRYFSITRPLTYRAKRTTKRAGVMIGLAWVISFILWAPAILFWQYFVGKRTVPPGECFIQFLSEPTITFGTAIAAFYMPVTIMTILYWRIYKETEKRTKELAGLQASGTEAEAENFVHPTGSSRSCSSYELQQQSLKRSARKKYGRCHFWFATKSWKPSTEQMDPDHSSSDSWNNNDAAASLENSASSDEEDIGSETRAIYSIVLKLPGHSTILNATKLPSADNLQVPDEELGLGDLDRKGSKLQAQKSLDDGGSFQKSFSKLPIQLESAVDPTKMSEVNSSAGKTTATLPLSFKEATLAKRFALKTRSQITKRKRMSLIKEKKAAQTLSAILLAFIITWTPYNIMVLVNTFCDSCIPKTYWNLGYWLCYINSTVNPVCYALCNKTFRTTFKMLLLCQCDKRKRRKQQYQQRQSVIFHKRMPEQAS
UniProt P20309, whole entry, looked up: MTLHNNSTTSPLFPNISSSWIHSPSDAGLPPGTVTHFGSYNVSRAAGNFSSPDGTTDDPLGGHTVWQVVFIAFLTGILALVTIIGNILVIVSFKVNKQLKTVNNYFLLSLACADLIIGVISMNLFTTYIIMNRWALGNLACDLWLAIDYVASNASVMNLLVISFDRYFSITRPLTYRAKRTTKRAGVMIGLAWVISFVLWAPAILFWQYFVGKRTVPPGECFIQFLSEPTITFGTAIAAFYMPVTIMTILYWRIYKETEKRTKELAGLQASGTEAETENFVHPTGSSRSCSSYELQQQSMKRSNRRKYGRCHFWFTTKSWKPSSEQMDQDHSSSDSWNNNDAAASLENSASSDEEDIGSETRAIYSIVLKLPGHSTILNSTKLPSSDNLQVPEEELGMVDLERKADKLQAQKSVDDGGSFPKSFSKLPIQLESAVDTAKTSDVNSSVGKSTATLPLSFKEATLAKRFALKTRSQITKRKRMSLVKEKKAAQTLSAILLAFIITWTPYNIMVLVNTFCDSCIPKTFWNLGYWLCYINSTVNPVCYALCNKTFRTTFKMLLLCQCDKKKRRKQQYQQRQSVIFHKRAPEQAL
UniProt P08483, whole entry, looked up: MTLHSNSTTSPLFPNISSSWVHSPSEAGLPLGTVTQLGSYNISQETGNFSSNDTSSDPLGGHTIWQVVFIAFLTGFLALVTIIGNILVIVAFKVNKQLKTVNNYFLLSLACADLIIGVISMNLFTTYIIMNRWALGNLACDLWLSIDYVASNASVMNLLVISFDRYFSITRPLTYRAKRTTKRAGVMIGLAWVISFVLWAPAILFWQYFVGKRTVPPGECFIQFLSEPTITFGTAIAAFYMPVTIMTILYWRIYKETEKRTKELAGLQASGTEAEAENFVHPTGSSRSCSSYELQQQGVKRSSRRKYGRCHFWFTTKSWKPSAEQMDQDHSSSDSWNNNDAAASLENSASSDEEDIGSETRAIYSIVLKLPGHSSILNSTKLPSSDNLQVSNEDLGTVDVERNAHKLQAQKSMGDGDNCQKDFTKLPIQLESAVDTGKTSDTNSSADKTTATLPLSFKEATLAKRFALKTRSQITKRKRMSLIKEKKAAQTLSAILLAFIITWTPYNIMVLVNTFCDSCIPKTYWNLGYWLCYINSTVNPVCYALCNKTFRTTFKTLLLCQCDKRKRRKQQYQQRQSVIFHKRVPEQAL
UniProt P10980, whole entry, looked up: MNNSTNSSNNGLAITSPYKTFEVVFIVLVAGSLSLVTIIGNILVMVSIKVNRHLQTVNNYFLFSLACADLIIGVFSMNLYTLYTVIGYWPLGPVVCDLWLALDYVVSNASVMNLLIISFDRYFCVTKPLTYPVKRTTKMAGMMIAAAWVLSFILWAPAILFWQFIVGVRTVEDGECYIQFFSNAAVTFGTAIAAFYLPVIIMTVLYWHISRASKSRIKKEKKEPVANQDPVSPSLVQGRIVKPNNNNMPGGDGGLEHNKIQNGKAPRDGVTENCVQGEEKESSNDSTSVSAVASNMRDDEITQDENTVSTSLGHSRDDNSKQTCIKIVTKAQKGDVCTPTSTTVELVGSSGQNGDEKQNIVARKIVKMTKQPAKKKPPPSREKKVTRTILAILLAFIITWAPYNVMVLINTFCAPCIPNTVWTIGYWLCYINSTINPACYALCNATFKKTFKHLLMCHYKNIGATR
UniProt P08172, whole entry, looked up: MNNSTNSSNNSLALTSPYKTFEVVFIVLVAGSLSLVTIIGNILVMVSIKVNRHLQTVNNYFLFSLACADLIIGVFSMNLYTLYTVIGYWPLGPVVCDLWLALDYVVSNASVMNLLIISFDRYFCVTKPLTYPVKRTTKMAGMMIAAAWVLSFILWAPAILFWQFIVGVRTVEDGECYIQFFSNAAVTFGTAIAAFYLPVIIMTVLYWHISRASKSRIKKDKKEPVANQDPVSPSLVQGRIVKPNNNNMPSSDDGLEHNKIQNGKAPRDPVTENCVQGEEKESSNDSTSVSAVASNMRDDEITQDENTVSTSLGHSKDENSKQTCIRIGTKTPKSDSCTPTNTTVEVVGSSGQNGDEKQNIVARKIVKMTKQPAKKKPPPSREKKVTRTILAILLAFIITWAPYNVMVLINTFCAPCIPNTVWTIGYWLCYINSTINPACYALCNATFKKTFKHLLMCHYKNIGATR

Tests used:
muscarinic M3 receptor = muscarinic M3 receptor (Canis lupus familiaris, UniProt A0A8I3N190); conditions: anesthetized beagle dogs, inhalation of 1 mg/ml for 10 minutes
[1] = target: m3 muscarinic acetylcholine receptor (Homo sapiens, UniProt P20309); assay: Inhibition of binding of [3H]-N-methylscopolamine to muscarinic m3 receptor
[2] = target: airway M3 receptor in isolated rat trachea (Rattus norvegicus, UniProt P08483)
[3] = target: M2 receptor in isolated rat right atrium (Rattus norvegicus, UniProt P10980); conditions: read-out: KB Right atrium M2, carbachol dose-response shift
[4] = target: m2 muscarinic acetylcholine receptor (Homo sapiens, UniProt P08172); assay: Inhibition of binding of [3H]-N-methylscopolamine to muscarinic m2 receptor; conditions: read-out: Ki m2; CHO cells expressing m2 receptor, 0.2 nM [3H]-N-methylscopolamine

| Compound | Shift Value 5 minutes after (muscarinic M3 receptor; methacholine threshold 5 minutes after) | Shift Value 4 hours after (muscarinic M3 receptor; methacholine threshold 4 hours after) | Shift Value 24 hours after (muscarinic M3 receptor; methacholine threshold 24 hours after) | m2/m3 (ratio of Ki) ([1]; selectivity ratio Ki m2 / Ki m3) | M2/M3 (ratio of KB) ([2]; selectivity ratio KB right atrium M2 / KB trachea M3) | Kb [3] | Ki [4] | Ki ([1]; read-out: Ki m3, CHO cells expressing m3 receptor, 0.2 nM [3H]-N-methylscopolamine) | Kb ([2]; read-out: KB Trachea M3, isolated rat trachea, carbachol dose-response shift) |
| --- | --- | --- | --- | --- | --- | --- | --- | --- | --- |
| C[N+]1(C)CCC(OC(=O)[C@](O)(c2ccc(Cl)cc2)[C@@H]2CCC(F)(F)C2)CC1.[Br-] | >30 | >30 | 5.8 | 68.5 | 218 | – | – | – | – |
| C[N+]1(C)CCC(OC(=O)[C@](O)(c2ccc(Cl)cc2)[C@@H]2CCC(F)(F)C2)CC1 | – | – | – | – | – | 9.6 nM | 29.1 nM | 0.425 nM | 0.044 nM |
